Data on nine compounds can be found in patent publication US8846929B2, “Substituted-quinoxaline-type piperidine compounds and the uses thereof” (priority 2007, dated 2014).

Experiment [1] concerns the target T1, kappa opioid receptor (Homo sapiens (Human), UniProt P41145). Briefly: In vitro kappa-opioid receptor binding assay ([3H]-U69,593 displacement).
The target in the next experiment is delta opioid receptor (Homo sapiens (Human), UniProt P41143). Briefly: In vitro delta-opioid receptor binding assay ([3H]-Naltrindole displacement).
Experiment [2] addresses T2, μ-opioid receptor (Homo sapiens (Human), UniProt P35372). Briefly: In vitro mu-opioid receptor [35S]GTPγS functional assay. As to conditions: mean ± SEM; for pEC50: read-out: GTPγS Opioid Receptor Mu EC50.
The target of experiment [3] is T2, μ-opioid receptor. Briefly: In vitro mu-opioid receptor binding assay ([3H]-diprenorphine displacement). To be noted: read-out: Ki [Average ± Std Deviation] Opioid Receptor Mu.
For experiment [4], the target named is T3, human opioid receptor-like (ORL-1) (Homo sapiens (Human), UniProt P41146). Briefly: In vitro ORL-1 receptor binding assay ([3H]-nociceptin displacement).
Experiment [5] concerns the target T1, kappa opioid receptor. Briefly: In vitro kappa-opioid receptor [35S]GTPγS functional assay. The experiment is classed as biochemical. To be noted: mean ± SEM; for pEC50: read-out: GTPγS Opioid Receptor Kappa EC50.
Experiment [6] deals with T3, human opioid receptor-like (ORL-1). Briefly: In vitro ORL-1 receptor [35S]GTPγS functional assay. It counts as biochemical. As to conditions: mean ± SEM; for pEC50: read-out: GTPγS ORL-1 EC50.

Structures are written as SMILES. pEC50, pKi: −log10 of the molar value.

As to `O=c1c(NC[C@@H](O)CO)nc2ccccc2n1[C@H]1C[C@H]2CC[C@@H](C1)N2C1CCCCCCC1`, the negative-log Ki (pKi) at kappa opioid receptor [1] is 6.81; at delta opioid receptor, 4.31; on μ-opioid receptor [3], 6.24; in experiment [4] it was 8.19. Also, the “GTPγS Opioid Receptor Mu Emax” value on μ-opioid receptor [2] was 8.7 ± 3.4%. In addition, the “GTPγS Opioid Receptor Kappa Emax” value on kappa opioid receptor [5] was 5.7 ± 0.3%. Further, the “GTPγS ORL-1 Emax” value in experiment [6] is 112.3 ± 6.3%.
As for `O=C(N[C@H](C(=O)O)c1ccccc1)c1nc2ccccc2n([C@H]2C[C@H]3CC[C@@H](C2)N3C2CCCCCCC2)c1=O`, the pKi is 7.31 on kappa opioid receptor [1], 5.59 at delta opioid receptor, 6.40 at μ-opioid receptor [3] and 7.61 in experiment [4]. In addition, the “GTPγS Opioid Receptor Mu Emax” value at μ-opioid receptor [2] came out at 14.0%. Moreover, the “GTPγS Opioid Receptor Kappa Emax” value on kappa opioid receptor [5] came to 31.3 ± 3.8%. Further, the “GTPγS ORL-1 Emax” value in experiment [6] was 74.7 ± 1.8%.
For the compound `CC(C)CC(NC(=O)c1nc2ccccc2n([C@H]2C[C@H]3CC[C@@H](C2)N3C2CCCCCCC2)c1=O)C(=O)O` (stereo partly drawn), the pKi at kappa opioid receptor [1] was 7.45; at delta opioid receptor, 5.65; on μ-opioid receptor [3], 6.34; in experiment [4], 7.45. Also, the “GTPγS Opioid Receptor Mu Emax” value at μ-opioid receptor [2] turned out to be 12.3 ± 0.3%. Also, the negative logarithm of the EC50 (pEC50) at μ-opioid receptor [2] was 4.67; on kappa opioid receptor [5], 5.40; in experiment [6], 6.57. The “GTPγS Opioid Receptor Kappa Emax” value on kappa opioid receptor [5] is 12.0 ± 4.0%. For the same compound, the “GTPγS ORL-1 Emax” value in experiment [6] is 67 ± 53%.
With `O=C(N[C@H](C(=O)O)c1ccccc1)c1nc2ccccc2n([C@H]2C[C@H]3CCC[C@@H](C2)N3C2CCCCCCC2)c1=O`, the negative-log Ki (pKi) on kappa opioid receptor [1] is 7.20; at delta opioid receptor, 6.97; at μ-opioid receptor [3], 6.35; in experiment [4], 8.05. The “GTPγS Opioid Receptor Mu Emax” value at μ-opioid receptor [2] came to 12 ± 1.8%. At kappa opioid receptor [5], the “GTPγS Opioid Receptor Kappa Emax” value came to 8.7 ± 1.3%. Moreover, the “GTPγS ORL-1 Emax” value in experiment [6] is reported as 57.7 ± 2%.
For the compound `CC1(C)[C@H]2CC[C@@H](CCN3[C@@H]4CC[C@H]3C[C@@H](n3c(=O)c(C(=O)O)nc5ccccc53)C4)[C@@H]1C2`, the negative-log Ki (pKi) on kappa opioid receptor [1] is 7.20; at delta opioid receptor, 6.12; at μ-opioid receptor [3], 6.17; in experiment [4], 8.85. Also, the “GTPγS Opioid Receptor Mu Emax” value at μ-opioid receptor [2] amounted to 9.5%. The “GTPγS Opioid Receptor Kappa Emax” value at kappa opioid receptor [5] turned out to be 9.8%. The “GTPγS ORL-1 Emax” value in experiment [6] worked out at 61.8%.
Take `NC(=O)c1nc2ccccc2n([C@H]2C[C@H]3CC[C@@H](C2)N3C2CCCCCCC2)c1=O`: the pKi was 6.81 at kappa opioid receptor [1], 4.60 on delta opioid receptor, 6.09 on μ-opioid receptor [3] and 8.35 in experiment [4]. Moreover, the “GTPγS Opioid Receptor Mu Emax” value at μ-opioid receptor [2] is 13 ± 2.1%. In addition, the “GTPγS Opioid Receptor Kappa Emax” value on kappa opioid receptor [5] is 17 ± 2.7%. Besides, the “GTPγS ORL-1 Emax” value in experiment [6] is on record as 113 ± 8%.
In the case of `O=C(O)c1nc2ccccc2n([C@H]2C[C@H]3CC[C@@H](C2)N3C2CCCCCCC2)c1=O`, the negative-log Ki (pKi) on kappa opioid receptor [1] is 6.20; at delta opioid receptor, 4.32; on μ-opioid receptor [3], 6.17; in experiment [4], 7.90. The “GTPγS Opioid Receptor Mu Emax” value at μ-opioid receptor [2] was 10.0 ± 0.6%. Moreover, the “GTPγS Opioid Receptor Kappa Emax” value on kappa opioid receptor [5] is listed as 11.3 ± 1.5%. In addition, the “GTPγS ORL-1 Emax” value in experiment [6] came out at 113.3 ± 3.3%.
As to `O=C(NCC(O)CO)c1nc2ccccc2n([C@H]2C[C@H]3CC[C@@H](C2)N3C2CCCCCCC2)c1=O` (stereo partly drawn), the pKi is 6.42 on kappa opioid receptor [1], 4.38 on delta opioid receptor, 6.41 at μ-opioid receptor [3] and 7.92 in experiment [4]. Also, the “GTPγS Opioid Receptor Mu Emax” value on μ-opioid receptor [2] is given as 10.8 ± 2.1%. Also, the “GTPγS Opioid Receptor Kappa Emax” value on kappa opioid receptor [5] was 10.3 ± 1.8%. Moreover, the “GTPγS ORL-1 Emax” value in experiment [6] is recorded as 107.3 ± 2.4%.
Turning to `CC(C)(NC(=O)c1nc2ccccc2n([C@H]2C[C@H]3CC[C@@H](C2)N3C2CCCCCCC2)c1=O)C(=O)O`, the pKi on kappa opioid receptor [1] was 6.84; at delta opioid receptor, 4.92; at μ-opioid receptor [3], 7.22; in experiment [4] it was 7.11. For the same compound, the “GTPγS Opioid Receptor Mu Emax” value on μ-opioid receptor [2] is listed as 10.3 ± 0.3%. Moreover, the negative-log EC50 (pEC50) on μ-opioid receptor [2] is 4.20; on kappa opioid receptor [5] it was 4.54; in experiment [6], 6.42. Moreover, the “GTPγS Opioid Receptor Kappa Emax” value at kappa opioid receptor [5] is listed as 24.7 ± 8.7%. The “GTPγS ORL-1 Emax” value in experiment [6] is listed as 97.7 ± 2.9%.
